# Data from patent US9850282B2, “Stable pentadecapeptide salts, a process for preparation thereof, a use thereof in the manufacture of pharmaceutical preparations and a use thereof in therapy” (priority 2013, dated 2017).
# Test: Stability in water solutions (1 g/100 ml) at 50° C.
# Format: physicochemical
# Conditions: for pH: aqueous salt solution 1 g/100 ml
# Experimental: This addition will be in the range from 0.5 mg to 3.0 mg per 1 mg of bepecin. […] The stability of bepecin salt with L-arginine in water solutions was determined after incubation of aqueous salt solutions in concentration 1 g/100 ml, at 50° C., and in a separate test in very stringent conditions: at 100° C., where the decomposition was determined after one hour.
Substance,pH,Pentadecapeptide content decrement in water at 50° C./time (hours): 20 (20 hours),Pentadecapeptide content decrement in water at 50° C./time (hours): 65 (65 hours),Pentadecapeptide content decrement in water at 50° C./time (hours): 148 (148 hours),Pentadecapeptide content decrement in water at 50° C./time (hours): 388 (388 hours),Pentadecapeptide content decrement in water at 50° C./time (hours): start/0 (start/0 hours)
Bepecin L-Lysine Salt (1:3) [Lys-BPC],7.28,–,–,–,–,–
Bepecin L-Ornithine Salt (1:2) [Orn-BPC],7.12,99.64%,99.78%,99.59%,99.44%,100.00%
